# From patent US7569225B2, “Immunogenic lipopeptides comprising T-helper and B-cell epitopes” (The Council of The Queensland Institute of Medical Research, priority 2002, dated 2009)
# Values joined by “and” are separate entries in the source; they are usually repeats but may differ in a detail not shown here. Equal values may be shown once. Read-outs that look alike come from different tables or passages of the source.
# Columns and labels:
# [1] = Solubility of peptides and lipopeptides in saline (visual inspection); assay type: physicochemical; settings: no higher concentrations were examined, read-out: soluble in saline at concentrations of at least
# Procedure: FIG. 2 is a photographic representation showing the solubilities of lipopeptides designated [Th]-Lys(Pam2Cys-Ser-Ser)-[B] (left) and Pam2Cys-Ser-Ser-[Th]-[B] (right) in FIG. 1, wherein the polypeptide moieties have the amino acid sequences set forth in SEQ ID NO: 7 and SEQ ID NO: 5, respectively. Both solutions are approximately 1 mg/ml lipopeptide in saline solution.
# Enhanced solubility was most evident in those cases where lipid was attached between the two epitopes at the approximate centre of the molecule. The lipopeptides designated [Th]-Lys(Pam2Cys)-[B] and [Th]-Lys(Pam3Cys)-[B] were soluble in saline at concentrations of at least 8 mg/ml (no higher concentrations were examined), whereas constructs in which lipid was attached to the N-terminus of the sequence formed opalescent solutions at concentrations as low as 0.25 mg/ml.
# We considered that the insoluble nature of this construct would prevent it from being considered as a viable proposition for manufacture as a vaccine.
# [2] = tested on: female mice; assay type: in vivo, BALB/c mice; settings: for Pregnancy status (No. of animals per group that dropped litters): subcutaneous, fertility experiment initiated two weeks after second dose
compound,measurement,setting,value
CCCCCCCCCCCCCCCC(=O)N[C@@H](CSCC(COC(=O)CCCCCCCCCCCCCCC)OC(=O)CCCCCCCCCCCCCCC)C(=O)NCCCC[C@H](NC(=O)[C@H](CO)NC(=O)[C@H](CCCCN)NC(=O)[C@H](CC(C)C)NC(=O)[C@H](CCC(=O)O)NC(=O)[C@@H](NC(=O)CNC(=O)[C@H](CCCCN)NC(=O)[C@@H](NC(=O)[C@H](CCC(N)=O)NC(=O)[C@H](Cc1ccccc1)NC(=O)[C@H](CCCNC(=N)N)NC(=O)[C@H](CC(N)=O)NC(=O)[C@H](CC(N)=O)NC(=O)[C@H](CC(C)C)NC(=O)[C@H](C)NC(=O)CN)[C@@H](C)CC)C(C)C)C(=O)N[C@@H](CCC(=O)O)C(=O)N[C@@H](Cc1c[nH]cn1)C(=O)N[C@@H](Cc1c[nH]c2ccccc12)C(=O)N[C@@H](CO)C(=O)N[C@@H](Cc1ccc(O)cc1)C(=O)NCC(=O)N[C@@H](CC(C)C)C(=O)N[C@@H](CCCNC(=N)N)C(=O)N1CCC[C@H]1C(=O)NCC(=O)O (some centres unmarked) [[Th]-Lys(Pam3Cys)-[B]],solubility,[1],≥ 8 mg/mL
same,Pregnancy status (No. of animals per group that dropped litters),[2]; 1 nmole,5 of 5 and 5/5
same,Pregnancy status (No. of animals per group that dropped litters),[2]; 10 nmole,3 of 5 and 3/5
same,Incidence of pregnancy 13 weeks after 2nd Dose,"[2]; 20 nmoles subcutaneously, animals per group of five",still infertile and 0/5
same,Incidence of pregnancy 2 weeks after 2nd Dose,"[2]; 20 nmoles subcutaneously, animals that dropped litters per group of five",None of the mice and 0/5
